Amino acid sequences for entries named in this document (tags omitted). A change or cut given only in a name is not applied to a line headed by its entry. Residues count along the entry.
UniProt O00443, 299-1686 limits assumed, stated change not applied: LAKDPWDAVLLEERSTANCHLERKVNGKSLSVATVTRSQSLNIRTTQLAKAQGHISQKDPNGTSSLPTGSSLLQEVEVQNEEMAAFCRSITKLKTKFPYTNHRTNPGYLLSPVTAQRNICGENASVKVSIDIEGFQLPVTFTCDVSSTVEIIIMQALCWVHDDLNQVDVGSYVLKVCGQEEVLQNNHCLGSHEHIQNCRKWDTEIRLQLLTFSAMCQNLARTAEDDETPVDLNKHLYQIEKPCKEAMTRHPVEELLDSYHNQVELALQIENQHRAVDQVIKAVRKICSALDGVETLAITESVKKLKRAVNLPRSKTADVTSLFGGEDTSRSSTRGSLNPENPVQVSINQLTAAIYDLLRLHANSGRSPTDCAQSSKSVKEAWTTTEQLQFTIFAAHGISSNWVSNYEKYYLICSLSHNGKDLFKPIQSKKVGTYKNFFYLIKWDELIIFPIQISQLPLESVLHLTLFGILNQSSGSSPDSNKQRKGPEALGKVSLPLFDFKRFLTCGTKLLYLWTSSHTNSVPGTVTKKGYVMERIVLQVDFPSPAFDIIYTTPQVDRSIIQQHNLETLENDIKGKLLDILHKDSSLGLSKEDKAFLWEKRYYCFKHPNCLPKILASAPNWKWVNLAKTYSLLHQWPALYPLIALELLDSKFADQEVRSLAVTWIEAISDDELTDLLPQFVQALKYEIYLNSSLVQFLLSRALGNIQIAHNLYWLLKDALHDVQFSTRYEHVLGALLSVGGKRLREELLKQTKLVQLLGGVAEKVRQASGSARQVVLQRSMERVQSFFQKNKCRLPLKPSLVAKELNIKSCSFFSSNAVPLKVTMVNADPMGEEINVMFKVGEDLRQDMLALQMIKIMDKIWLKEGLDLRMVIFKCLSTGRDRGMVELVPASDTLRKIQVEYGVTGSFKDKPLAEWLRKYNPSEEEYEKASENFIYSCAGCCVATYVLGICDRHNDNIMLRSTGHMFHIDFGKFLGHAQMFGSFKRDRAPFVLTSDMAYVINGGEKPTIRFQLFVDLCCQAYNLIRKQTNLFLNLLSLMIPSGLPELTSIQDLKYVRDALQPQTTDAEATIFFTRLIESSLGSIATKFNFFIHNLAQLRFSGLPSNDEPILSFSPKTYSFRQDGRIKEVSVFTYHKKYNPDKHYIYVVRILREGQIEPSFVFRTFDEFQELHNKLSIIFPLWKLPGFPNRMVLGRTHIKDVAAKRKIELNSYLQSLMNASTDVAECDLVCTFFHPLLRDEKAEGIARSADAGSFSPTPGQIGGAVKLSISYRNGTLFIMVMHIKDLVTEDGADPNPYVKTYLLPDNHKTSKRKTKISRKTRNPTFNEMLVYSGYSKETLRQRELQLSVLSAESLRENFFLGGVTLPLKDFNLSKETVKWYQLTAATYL

In patent publication US12247029B2, “Heterocyclic compounds as class II phosphoinositide 3-kinase inhibitors” (Forschungsverbund Berlin e.V., priority 2018, dated 2025):

Experiments:
HeLa cells = assay: Clathrin-mediated endocytosis of transferrin (transferrin uptake); conditions: vs DMSO
Description: To test if the validated compounds are cell membrane permeable and, thus, can be used as medicaments and in cell-based experiments, the inventors analyzed clathrin-mediated endocytosis of transferrin in the presence of PI3KC2α inhibitors or DMSO as a solvent control. […] Similar results were obtained for C2a_Inh_3 (FIG. 8A). Further, the inventors monitored the CCP dynamics in cells with PI3KC2α inhibitor (C2a_Inh3) treatment for 1 h.

PI3KC2α Δ1-298 = PI3KC2α Δ1-298 (Homo sapiens (Human), UniProt O00443); assay: ADP-Glo kinase assay with purified PI3KC2α Δ1-298; conditions: read-out: IC50 for PI3KC2α inhibition
Description: Previous studies have shown that PI3KC2α can utilize phosphatidylinositol (PI) or phosphatidylinositol 4-phosphate [PI(4)P] to produce PI(3)P or PI(3,4)P2 respectively but with a preference for PI(3,4)P2 production. To verify that purified PI3KC2α Δ1-298 is active, a radioactive kinase assay was performed with PI as a substrate and different amounts of purified PI3KC2α Δ1-298. The lipid product [PI(3)P] was separated on TLC plates, and the PI(3)P signal was correlated with the amount of PI3KC2α used (FIG. 4A). […] After having confirmed the activity of purified PI3KC2α Δ1-298, an assay suitable for high content screens in multiwell format (ADP-Glo™ assay) was established. The ADP-Glo™ assay has been used for universal detection of ATP hydrolysis. This assay measures ATP hydrolysis occurring during a kinase reaction. For detection, generated ADP is re-converted into ATP with the […] and converted into light by the Ultra-Glo™ Luciferase reagent. The luminescent signal reports kinase activity (FIG. 4B).
The ADP-Glo™ assay was first used to determine the linear correlation range of signal with different amounts of kinase, and then to assess the Kms for ATP and for PI. […] Further optimization of this assay allowed us to carry out medium-to-high throughput screening using low amounts of purified enzyme (at fixed concentrations of: ATP=40 μM, PI=200 μM, PI3KC2α A1−298=10 ng/μl). […]

SMILES | reduction in transferrin uptake (HeLa cells) | pIC50 (PI3KC2α Δ1-298)
CC(C)CCn1c(SCC(=O)Nc2ccccc2C(F)(F)F)nc2nccnc2c1=O | 20-30% | 
O=C(CSc1nc2nccnc2c(=O)n1CCc1ccccc1)Nc1ccccc1 [Example Compound 22, 2-((4-Oxo-3-phenethyl-3,4-dihydropteridin-2-yl)thio)-N-phenylacetamide] | 20-30% | 6.12 and 6.22 to 6.30

pIC50: −log10 of the molar value. Several values for one entry are separate records, joined by “and”; a condition that tells them apart may be missing. Equal values may be shown once.
